The values below are quoted from earlier work in PMC6628571.

pKd: −log10 of the molar value.

The series deals with Aβ(12–28) 12-28 (Homo sapiens) (UniProt P05067). Briefly: NMR.

As usually defined, the pKd is the Kd on a negative log10 scale, so that one unit is a factor of ten. On to Transthyretin (from UniProt P02766), for which the pKd was 5.70.
